ChEMBL document CHEMBL1137888, “1,3-Dihydro-2,1,3-benzothiadiazol-2,2-diones and 3,4-dihydro-1H-2,1,3-benzothidiazin-2,2-diones as ligands for the NOP receptor” (2004)

Protein sequences, listed by entry. Tags and fused reporters are not part of them.
UniProt P41146, whole entry: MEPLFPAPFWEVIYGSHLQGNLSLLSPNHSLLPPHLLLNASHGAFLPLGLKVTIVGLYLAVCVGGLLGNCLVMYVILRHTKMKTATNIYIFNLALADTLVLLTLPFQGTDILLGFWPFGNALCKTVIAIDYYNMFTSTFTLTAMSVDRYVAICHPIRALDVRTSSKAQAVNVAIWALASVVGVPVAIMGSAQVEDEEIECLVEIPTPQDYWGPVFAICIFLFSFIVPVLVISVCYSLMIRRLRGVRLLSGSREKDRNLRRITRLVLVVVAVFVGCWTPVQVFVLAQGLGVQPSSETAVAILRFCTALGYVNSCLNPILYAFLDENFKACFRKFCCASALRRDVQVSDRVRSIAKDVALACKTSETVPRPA

Target: Nociceptin receptor (Homo sapiens) (UniProt P41146)
Experiment: Agonist activity as maximal effect in [35S]-GTP-gamma binding assay compared to 60 nM N/OFQ

| SMILES | Emax |
| --- | --- |
| CC(C)C1CCC(N2CCC(N3c4ccccc4CN(CCO)S3(=O)=O)CC2)CC1 (centres undefined) | 95% |
| CC(C)CCC(C)N1CCC(N2c3ccccc3CNS2(=O)=O)CC1 (centres undefined) | 84% |
| CCCCN1Cc2ccccc2N(C2CCN(C3CCC(C(C)C)CC3)CC2)S1(=O)=O (centres undefined) | 94% |
| CC(C)C1CCC(N2CCC(N3c4ccccc4CNS3(=O)=O)CC2)CC1 (centres undefined) | 92% and 99% and 93% |

Where “and” joins values, the source holds several entries; their conditions need not be identical. Identical values can stand only once.
